Patent US20240294541A1, “COMPOUNDS CONSTITUTING C20-MODIFIED SALINOMYCIN DERIVATIVES, A METHOD FOR OBTAINING THE SAME, A COMPOSITION CONTAINING THE SAME AND A USE OF SAID COMPOUNDS” (FILECLO SPOLKA Z OGRANICZONA ODPOWIEDZIALNOSCIA, priority 2021, published 2024)

How the values were obtained:
[1] = tested on: MV-4-11 (human biphenotypic leukaemia); test: In vitro cytotoxicity, MTT assay, MV-4-11; assay type: cell-based; details: Table 5; selectivity coefficient vs normal BALB/3T3 fibroblasts
[2] = tested on: NCI-H1581 (human lung cancer); test: In vitro cytotoxicity, SRB assay, NCI-H1581; details: Table 5; selectivity coefficient vs normal BALB/3T3 fibroblasts
[3] = tested on: A2780Cis (cisplatin-resistant human ovarian cancer); test: In vitro cytotoxicity, SRB assay, A2780Cis; assay type: cell-based; details: Table 5

CC[C@@H](C(=O)[C@@H](C)[C@@H](O)[C@H](C)[C@@H]1O[C@@H]([C@@H](CC)C(=O)O)CC[C@@H]1C)[C@H]1O[C@]2(C=C[C@@H](NC(=O)c3cc(OC)c(OC)c(OC)c3)[C@]3(CC[C@@](C)([C@H]4CC[C@](O)(CC)[C@H](C)O4)O3)O2)[C@H](C)C[C@@H]1C [FLC-00573-1•Na]
SI MV4-11 [1]: 11.9 | SI NCI-H1581 [2]: 63.2 | SI A2780Cis ([3]; selectivity coefficient vs normal BALB/3T3 fibroblasts): 38.7 | IC50 ([3]; read-out: IC50 (nM) A2780Cis, A2780Cis cisplatin-resistant human ovarian cancer cells): 48.7 nM
